# According to ChEMBL document CHEMBL5055621, “Synthesis and Characterization of the Novel Rodent-Active and CNS-Penetrant P2X7 Receptor Antagonist Lu AF27139” (J Med Chem, 2021):
# By UniProt entry, the sequences of proteins in these tests, tags left out. Where a name states a change or a piece, a line headed by the entry shows the natural chain unless it says otherwise.
# UniProt Q99572: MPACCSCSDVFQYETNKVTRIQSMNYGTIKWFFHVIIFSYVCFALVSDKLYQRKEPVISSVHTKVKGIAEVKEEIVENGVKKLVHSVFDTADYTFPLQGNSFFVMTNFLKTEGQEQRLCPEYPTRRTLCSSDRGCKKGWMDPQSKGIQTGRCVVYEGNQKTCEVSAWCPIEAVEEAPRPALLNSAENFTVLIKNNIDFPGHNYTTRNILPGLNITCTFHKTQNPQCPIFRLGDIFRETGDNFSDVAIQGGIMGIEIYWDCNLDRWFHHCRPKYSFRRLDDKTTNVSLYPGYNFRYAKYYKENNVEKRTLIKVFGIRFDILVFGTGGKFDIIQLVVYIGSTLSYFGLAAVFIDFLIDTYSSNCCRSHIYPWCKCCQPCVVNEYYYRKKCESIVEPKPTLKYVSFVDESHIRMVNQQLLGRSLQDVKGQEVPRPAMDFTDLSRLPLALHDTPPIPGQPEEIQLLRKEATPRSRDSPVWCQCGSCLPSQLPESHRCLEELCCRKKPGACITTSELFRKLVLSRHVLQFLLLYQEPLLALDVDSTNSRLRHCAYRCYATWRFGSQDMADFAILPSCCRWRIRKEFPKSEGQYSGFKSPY
# Assays:
# [1] = target: T1, P2X purinoceptor 7 (Homo sapiens, UniProt Q99572); experiment: Antagonist activity at human P2X7 receptor expressed in HEK293 cells assessed as inhibition of BzATP-induced calcium-flux measured after 60 mins by FLIPR analysis; assay type: cell-based
# [2] = target: T2, P2X purinoceptor 7 (Mus musculus, UniProt Q9Z1M0); experiment: Antagonist activity at mouse P2X7 receptor expressed in HEK293 cells assessed as inhibition of BzATP-induced calcium-flux measured after 60 mins by FLIPR analysis; assay type: cell-based
# T2 sequence (Q9Z1M0 whole entry): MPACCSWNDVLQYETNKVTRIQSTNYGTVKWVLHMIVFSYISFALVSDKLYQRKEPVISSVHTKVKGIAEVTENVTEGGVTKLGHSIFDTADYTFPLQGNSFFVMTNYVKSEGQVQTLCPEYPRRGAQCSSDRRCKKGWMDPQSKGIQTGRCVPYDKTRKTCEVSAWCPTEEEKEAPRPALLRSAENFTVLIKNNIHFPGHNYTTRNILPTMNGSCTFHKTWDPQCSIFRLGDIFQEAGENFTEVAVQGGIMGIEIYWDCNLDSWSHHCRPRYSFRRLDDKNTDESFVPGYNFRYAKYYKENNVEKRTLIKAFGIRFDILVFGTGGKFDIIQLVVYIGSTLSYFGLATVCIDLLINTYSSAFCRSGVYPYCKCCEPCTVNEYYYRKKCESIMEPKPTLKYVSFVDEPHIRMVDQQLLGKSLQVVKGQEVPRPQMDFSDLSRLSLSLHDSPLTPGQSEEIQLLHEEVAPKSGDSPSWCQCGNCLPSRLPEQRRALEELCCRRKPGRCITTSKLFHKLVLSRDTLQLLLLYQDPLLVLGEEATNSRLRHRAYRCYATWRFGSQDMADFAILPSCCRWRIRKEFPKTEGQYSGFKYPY
# Procedure, shortened: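 Stable rat or mouse P2X7 HEK293 cells in HBSS/20 mM HEPES/2.5 mM probenecid/0.05% BSA, pH 7.4, were loaded with Fluo-4 NW (37 °C 30 min, RT 30 min). Antagonist was preincubated before EC80 BzATP (rat 15 μM). After 30 min at RT, calcium fluorescence was read by FLIPR; n ≥ 3.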
# [3] = target: T1, P2X purinoceptor 7; experiment: Displacement of [3H]-A-804598 from human P2X7 receptor expressed in HEK293 cell membrane by in vitro binding assay; assay type: cell membranes
# [4] = target: T2, P2X purinoceptor 7; experiment: Displacement of [3H]-A-804598 from mouse P2X7 receptor expressed in HEK293 cell membrane by in vitro binding assay; assay type: cell membranes
# Procedure, shortened: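 Binding used membranes from P2X7-transfected HEK293 cells (rat 10 μg, human 40 μg, mouse 60 μg per well) with [3H]-A-804598.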
compound,measurement,setting,value
C[C@H](N/C(=N/C#N)Nc1cccc2ncccc12)c1ccccc1,IC50,[1],32 nM
same,IC50,[2],34 nM
same,Ki,[3],8.9 nM
same,Ki,[4],60 nM
